The source of these data is ChEMBL document CHEMBL1165913, “Repairing faulty genes by aminoglycosides: development of new derivatives of geneticin (G418) with enhanced suppression of diseases-causing nonsense mutations” (Bioorg Med Chem, 2010).

A short description of the assay: Inhibition of ribosomal activity in Spodoptera frugiperda Sf21 cells assessed as inhibition of translation after 60 mins by fluorescence assay.

What is called IC50 is the concentration that gives 50% inhibition.

For the compound `CN[C@@H]1[C@@H](O)[C@@H](O[C@@H]2[C@@H](O)[C@H](O[C@H]3O[C@H]([C@@H](C)O)[C@@H](O)[C@H](O)[C@H]3N)[C@@H](N)C[C@H]2N)OC[C@]1(C)O` [GENETICIN], the IC50 is 2 µM.
